The source of these data is ChEMBL document CHEMBL3763153, “Recent Update on Human Lactate Dehydrogenase Enzyme 5 (hLDH5) Inhibitors: A Promising Approach for Cancer Chemotherapy” (J Med Chem, 2016).

This test has as its target L-lactate dehydrogenase A chain (Homo sapiens, UniProt P00338).

Take `NC(=O)C(=O)O` [OXAMATE]: the affinity corresponds to a Ki of 136 µM.

The Ki is a measure of affinity in units of concentration, obtained from inhibition or displacement. Higher therefore signals a looser hold on the target.
